Source: patent publication US11052131B2, “Methods and pharmaceutical compositions for the treatment of kidney cancer” (INSERM (Institut National de la Santé et de la Recherche …, priority 2016, dated 2021)

Target: T1, human GFP-APJ fusion protein (Homo sapiens, UniProt P35414)
T1 construct: expressed in transfected cells
T1 sequence (P35414 1-380): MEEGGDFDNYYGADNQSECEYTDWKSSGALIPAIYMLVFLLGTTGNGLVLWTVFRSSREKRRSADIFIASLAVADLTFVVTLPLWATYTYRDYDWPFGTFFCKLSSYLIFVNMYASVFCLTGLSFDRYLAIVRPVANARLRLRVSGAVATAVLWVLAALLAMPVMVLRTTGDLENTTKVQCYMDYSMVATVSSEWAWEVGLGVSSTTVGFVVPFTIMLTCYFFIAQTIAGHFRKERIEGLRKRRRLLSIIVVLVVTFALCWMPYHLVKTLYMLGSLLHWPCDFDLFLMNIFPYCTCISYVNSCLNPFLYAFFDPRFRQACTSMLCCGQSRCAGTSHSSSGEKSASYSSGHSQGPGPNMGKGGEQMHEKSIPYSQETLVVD
Experiment: APJ receptor internalization assay in HEK293A cells expressing GFP-APJ
Format: cell-based
Conditions: 1 μM peptide, 30 min, HEK293 cells expressing GFP-APJ
Protocol: HEK293A cells stably expressing human GFP-APJ fusion protein were serum starved for 24 hours, and treated for 30 minutes with 1 μM Ela 11, wild type proEla 32 or mutant proEla 32 peptide. Cells were fixed with 4% paraformaldehyde for 10 minutes at room temperature and APJ receptor internalization was analyzed using a Nikon epifluorescence microscopy.
Ligand-induced receptor internalization is a cellular response of APJ to ligand binding and its activation. To investigate whether mature ELA 11, wild type and mutant pro Ela 32 will induce APJ internalization, we expressed in stable manner APJ as a fusion protein with enhanced green fluorescent protein (GFP-APJ, data not shown) through lentiviral infection in HEK293 cells and examined its intracellular localization in response to indicated Ela peptides. At the basal level, the fusion protein was mainly localized at the cell surface.

With “QRPVNLTMRRKLRKHNCLQRRCMPLHSRVPFP [wild type proEla 32]” the APJ internalization was “able to activate the APJ receptor and mediate its internalization”.
